Results as given in US10087225B2, “Formulation of MK2 inhibitor peptides” (MOERAE MATRIX, INC., priority 2015, dated 2018).

Amino acid sequences for entries named in this document (tags omitted). A change or cut given only in a name is not applied to a line headed by its entry.
UniProt Q86Z02: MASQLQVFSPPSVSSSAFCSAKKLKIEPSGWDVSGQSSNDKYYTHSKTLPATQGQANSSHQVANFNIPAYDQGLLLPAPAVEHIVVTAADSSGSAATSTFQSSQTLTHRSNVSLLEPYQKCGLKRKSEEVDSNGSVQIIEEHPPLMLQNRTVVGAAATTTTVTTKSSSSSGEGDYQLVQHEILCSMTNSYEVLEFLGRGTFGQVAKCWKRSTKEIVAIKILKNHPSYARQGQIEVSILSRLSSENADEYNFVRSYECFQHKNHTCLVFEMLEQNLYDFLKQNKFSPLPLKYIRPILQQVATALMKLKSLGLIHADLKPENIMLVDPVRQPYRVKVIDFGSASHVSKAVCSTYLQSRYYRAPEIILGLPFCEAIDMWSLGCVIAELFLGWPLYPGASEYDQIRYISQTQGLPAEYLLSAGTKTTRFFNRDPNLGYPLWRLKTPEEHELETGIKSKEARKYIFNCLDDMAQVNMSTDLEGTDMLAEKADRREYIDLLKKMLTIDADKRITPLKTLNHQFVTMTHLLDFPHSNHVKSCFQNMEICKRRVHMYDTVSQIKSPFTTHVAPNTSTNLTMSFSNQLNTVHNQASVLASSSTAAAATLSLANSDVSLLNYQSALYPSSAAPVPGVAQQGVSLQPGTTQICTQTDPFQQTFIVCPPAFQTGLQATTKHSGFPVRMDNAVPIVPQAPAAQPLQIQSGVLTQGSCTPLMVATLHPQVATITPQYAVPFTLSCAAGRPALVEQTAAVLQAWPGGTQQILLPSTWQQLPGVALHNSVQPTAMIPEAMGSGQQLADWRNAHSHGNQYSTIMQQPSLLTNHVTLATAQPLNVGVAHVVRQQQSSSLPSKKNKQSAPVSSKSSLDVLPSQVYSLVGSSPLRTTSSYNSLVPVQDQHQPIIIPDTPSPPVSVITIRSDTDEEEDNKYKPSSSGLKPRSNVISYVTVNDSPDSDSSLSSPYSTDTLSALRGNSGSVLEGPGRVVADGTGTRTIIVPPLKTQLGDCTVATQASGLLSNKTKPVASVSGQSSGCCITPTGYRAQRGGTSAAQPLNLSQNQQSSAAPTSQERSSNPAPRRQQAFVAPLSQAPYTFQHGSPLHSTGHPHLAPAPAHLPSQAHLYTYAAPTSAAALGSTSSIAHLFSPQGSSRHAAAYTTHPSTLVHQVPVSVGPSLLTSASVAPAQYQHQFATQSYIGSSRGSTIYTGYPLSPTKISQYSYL
UniProt Q86Y07: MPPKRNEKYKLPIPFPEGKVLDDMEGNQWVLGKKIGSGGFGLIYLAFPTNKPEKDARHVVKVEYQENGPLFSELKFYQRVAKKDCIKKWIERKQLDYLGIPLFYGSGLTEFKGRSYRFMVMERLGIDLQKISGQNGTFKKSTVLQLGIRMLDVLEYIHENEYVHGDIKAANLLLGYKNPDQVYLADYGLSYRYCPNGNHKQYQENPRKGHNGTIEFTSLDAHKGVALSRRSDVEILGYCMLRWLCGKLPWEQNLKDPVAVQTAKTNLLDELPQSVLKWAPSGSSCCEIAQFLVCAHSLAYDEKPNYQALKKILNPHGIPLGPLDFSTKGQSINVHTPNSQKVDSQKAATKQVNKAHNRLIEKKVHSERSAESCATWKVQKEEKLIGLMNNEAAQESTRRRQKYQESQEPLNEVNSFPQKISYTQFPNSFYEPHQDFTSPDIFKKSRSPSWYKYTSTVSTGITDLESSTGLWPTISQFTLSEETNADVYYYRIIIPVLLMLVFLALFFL
UniProt Q9NYY3: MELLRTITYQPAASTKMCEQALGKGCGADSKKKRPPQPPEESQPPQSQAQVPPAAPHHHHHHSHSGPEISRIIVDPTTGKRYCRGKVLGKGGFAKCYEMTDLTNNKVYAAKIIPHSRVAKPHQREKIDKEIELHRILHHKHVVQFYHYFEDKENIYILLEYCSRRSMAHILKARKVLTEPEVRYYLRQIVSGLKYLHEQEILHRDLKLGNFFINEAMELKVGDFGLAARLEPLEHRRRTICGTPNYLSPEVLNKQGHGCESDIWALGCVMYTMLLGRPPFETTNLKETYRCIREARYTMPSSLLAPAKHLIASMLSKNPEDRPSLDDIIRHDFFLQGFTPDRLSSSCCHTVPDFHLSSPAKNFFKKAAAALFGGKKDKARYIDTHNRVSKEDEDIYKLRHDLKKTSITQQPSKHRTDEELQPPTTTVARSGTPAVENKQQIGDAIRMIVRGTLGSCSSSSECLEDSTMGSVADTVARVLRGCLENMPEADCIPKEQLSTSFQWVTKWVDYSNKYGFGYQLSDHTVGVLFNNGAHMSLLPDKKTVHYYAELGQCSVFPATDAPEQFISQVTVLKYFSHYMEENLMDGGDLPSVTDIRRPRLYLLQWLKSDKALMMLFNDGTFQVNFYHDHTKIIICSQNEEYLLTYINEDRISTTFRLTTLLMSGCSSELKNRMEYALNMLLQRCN
UniProt Q9Y5S2: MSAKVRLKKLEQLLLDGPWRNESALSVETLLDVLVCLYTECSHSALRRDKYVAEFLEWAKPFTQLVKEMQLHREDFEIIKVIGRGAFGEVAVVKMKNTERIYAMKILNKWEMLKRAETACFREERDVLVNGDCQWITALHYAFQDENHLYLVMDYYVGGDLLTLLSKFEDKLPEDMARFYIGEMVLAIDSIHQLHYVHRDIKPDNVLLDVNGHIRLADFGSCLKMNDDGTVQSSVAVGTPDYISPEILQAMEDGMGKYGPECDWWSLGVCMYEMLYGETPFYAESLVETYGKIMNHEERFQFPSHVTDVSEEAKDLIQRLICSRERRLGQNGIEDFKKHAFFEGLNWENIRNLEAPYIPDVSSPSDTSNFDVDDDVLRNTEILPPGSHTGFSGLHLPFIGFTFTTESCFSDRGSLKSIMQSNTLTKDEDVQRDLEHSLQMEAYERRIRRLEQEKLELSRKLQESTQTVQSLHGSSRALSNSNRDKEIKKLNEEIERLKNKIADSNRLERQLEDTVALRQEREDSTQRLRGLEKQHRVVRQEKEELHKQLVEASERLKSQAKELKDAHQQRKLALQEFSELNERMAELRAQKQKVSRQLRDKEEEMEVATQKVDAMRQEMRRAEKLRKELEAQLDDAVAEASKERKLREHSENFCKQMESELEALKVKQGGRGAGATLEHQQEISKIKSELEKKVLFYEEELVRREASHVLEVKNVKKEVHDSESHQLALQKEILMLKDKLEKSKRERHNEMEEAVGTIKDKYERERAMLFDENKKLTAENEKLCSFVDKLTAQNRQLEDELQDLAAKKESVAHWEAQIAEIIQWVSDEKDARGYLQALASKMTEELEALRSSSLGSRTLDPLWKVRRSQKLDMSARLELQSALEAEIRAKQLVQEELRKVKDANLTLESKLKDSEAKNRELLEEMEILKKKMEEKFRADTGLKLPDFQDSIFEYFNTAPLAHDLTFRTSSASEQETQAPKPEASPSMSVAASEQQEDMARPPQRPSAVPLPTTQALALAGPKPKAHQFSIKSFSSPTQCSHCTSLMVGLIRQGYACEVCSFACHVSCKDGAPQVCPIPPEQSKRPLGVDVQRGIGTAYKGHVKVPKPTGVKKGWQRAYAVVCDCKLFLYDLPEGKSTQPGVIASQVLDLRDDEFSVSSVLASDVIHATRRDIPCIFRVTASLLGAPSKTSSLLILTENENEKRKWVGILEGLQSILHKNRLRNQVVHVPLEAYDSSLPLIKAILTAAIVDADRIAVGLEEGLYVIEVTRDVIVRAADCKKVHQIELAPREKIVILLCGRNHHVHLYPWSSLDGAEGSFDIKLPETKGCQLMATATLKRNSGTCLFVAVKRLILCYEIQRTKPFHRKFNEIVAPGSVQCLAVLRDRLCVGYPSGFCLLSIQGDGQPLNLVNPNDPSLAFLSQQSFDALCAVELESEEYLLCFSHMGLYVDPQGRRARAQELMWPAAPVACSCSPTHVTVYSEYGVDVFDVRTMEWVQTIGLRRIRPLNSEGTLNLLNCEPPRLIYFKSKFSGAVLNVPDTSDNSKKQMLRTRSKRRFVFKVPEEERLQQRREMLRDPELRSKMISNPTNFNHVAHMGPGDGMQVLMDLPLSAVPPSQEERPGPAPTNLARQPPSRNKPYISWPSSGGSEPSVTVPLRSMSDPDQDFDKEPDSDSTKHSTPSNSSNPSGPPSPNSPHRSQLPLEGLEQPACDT
UniProt Q5VT25: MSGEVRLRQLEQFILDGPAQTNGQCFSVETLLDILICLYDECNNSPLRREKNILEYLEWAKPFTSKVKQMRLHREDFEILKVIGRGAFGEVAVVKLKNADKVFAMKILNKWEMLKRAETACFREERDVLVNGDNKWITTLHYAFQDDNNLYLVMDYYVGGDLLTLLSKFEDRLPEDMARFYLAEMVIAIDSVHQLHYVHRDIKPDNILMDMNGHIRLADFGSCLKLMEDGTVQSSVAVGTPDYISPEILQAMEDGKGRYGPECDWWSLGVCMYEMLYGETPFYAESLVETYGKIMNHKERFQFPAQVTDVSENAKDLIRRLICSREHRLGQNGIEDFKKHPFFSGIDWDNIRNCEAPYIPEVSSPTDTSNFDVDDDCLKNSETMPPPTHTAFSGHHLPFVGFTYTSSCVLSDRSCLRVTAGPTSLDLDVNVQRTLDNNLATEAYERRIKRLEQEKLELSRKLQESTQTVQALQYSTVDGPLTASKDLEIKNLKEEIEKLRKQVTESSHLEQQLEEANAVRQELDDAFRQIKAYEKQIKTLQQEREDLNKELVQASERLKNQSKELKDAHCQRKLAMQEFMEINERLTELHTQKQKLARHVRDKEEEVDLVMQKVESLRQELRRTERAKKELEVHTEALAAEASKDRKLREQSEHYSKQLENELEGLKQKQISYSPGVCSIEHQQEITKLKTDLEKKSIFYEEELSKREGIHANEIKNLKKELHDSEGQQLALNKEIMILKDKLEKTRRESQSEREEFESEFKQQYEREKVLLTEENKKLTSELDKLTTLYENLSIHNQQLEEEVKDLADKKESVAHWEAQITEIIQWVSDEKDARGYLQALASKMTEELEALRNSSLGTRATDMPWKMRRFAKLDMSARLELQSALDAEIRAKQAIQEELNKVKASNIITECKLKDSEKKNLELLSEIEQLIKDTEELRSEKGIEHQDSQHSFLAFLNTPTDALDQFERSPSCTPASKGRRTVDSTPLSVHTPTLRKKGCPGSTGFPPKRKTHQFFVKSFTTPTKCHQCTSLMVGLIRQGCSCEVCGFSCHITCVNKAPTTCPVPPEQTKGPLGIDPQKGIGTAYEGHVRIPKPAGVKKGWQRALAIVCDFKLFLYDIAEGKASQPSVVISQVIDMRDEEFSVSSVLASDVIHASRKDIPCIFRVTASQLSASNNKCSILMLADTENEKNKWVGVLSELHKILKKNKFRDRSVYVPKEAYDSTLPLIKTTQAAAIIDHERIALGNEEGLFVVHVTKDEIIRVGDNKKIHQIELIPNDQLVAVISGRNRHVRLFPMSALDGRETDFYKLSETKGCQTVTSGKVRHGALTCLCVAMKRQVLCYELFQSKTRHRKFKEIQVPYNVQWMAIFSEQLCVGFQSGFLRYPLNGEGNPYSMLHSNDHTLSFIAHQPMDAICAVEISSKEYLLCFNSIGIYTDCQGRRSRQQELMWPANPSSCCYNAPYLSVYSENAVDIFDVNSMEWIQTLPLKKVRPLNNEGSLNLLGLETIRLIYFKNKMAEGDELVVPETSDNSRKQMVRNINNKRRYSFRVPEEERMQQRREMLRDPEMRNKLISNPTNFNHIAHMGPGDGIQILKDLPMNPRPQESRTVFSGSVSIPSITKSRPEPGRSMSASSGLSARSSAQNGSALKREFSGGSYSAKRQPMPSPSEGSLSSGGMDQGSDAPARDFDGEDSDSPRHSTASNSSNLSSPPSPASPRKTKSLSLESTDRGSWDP
UniProt Q9Y243: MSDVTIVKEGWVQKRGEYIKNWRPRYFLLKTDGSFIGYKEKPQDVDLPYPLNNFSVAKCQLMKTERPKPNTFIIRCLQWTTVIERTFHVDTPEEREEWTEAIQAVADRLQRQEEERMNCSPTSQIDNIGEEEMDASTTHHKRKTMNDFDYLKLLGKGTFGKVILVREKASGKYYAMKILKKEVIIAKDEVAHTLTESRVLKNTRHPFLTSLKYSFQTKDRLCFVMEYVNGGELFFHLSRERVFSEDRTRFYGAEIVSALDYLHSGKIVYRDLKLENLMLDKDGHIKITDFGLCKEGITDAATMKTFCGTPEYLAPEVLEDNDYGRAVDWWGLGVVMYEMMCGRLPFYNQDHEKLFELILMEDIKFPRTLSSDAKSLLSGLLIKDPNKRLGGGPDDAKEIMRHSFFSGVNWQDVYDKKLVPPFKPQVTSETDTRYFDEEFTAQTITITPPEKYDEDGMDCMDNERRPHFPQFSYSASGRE

How the values were obtained:
Assay in all cases: Kinase Profiling Assay
Assay type in all cases: biochemical
Conditions in all cases: 100 μM
eEF-2K(h) = eEF-2K(h) (Homo sapiens, UniProt O00418)
Ab1(Y253F)(h) = Ab1(Y253F)(h) (Homo sapiens, UniProt P00519, Y253F)
MAPK2(h) = MAPK2(h) (Homo sapiens, UniProt P28482)
SAPK2a(h) = SAPK2a(h) (Homo sapiens, UniProt Q16539)
MINK(h) = MINK(h) (Homo sapiens, UniProt Q8N4C8)
Lck(h) = Lck(h) (Homo sapiens, UniProt P06239)
HIPK3(h) = HIPK3(h) (Homo sapiens, UniProt Q9H422)
EphA3(h) = biological target: T1, EphA3(h) (Homo sapiens, UniProt P29320)
T1 sequence (P29320 21-983): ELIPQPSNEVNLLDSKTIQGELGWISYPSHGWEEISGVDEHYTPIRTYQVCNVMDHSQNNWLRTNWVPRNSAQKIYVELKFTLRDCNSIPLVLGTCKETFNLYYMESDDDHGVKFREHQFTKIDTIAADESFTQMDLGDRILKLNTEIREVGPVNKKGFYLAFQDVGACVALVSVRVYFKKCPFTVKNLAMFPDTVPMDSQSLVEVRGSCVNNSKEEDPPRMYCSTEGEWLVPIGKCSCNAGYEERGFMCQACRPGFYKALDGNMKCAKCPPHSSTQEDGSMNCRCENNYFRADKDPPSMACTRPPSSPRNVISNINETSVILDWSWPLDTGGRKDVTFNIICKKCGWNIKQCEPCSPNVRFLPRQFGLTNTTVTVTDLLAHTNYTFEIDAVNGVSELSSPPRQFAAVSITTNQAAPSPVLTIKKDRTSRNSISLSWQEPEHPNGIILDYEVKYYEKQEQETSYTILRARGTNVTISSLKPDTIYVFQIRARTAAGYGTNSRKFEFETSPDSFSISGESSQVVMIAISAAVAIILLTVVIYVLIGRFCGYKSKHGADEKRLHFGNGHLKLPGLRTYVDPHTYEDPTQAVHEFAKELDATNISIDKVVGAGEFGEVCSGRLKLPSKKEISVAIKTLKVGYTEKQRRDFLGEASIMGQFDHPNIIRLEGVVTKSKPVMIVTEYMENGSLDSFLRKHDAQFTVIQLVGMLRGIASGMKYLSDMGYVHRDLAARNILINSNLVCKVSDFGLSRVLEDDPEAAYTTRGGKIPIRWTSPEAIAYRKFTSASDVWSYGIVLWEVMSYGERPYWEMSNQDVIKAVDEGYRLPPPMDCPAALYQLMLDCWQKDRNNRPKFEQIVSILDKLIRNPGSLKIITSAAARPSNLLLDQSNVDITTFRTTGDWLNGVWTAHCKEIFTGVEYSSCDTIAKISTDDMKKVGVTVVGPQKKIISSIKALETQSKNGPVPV

HIPK1(h) = HIPK1(h) (Homo sapiens, UniProt Q86Z02)
MARK1(h) = MARK1(h) (Homo sapiens, UniProt Q9P0L2)
VRK2(h) = VRK2(h) (Homo sapiens, UniProt Q86Y07)
SGK2(h) = biological target: T2, SGK2(h) (Homo sapiens, UniProt Q9HBY8)
T2 sequence (Q9HBY8 1-367): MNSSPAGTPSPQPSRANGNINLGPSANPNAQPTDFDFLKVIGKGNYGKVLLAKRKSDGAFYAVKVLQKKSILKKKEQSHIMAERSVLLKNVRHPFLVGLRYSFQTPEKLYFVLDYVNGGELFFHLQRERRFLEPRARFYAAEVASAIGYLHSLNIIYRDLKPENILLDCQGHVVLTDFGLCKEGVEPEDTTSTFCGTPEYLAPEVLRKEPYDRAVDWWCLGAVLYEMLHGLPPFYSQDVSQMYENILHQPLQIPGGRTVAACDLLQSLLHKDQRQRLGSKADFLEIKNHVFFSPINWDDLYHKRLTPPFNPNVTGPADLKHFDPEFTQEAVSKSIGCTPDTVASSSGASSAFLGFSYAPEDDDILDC

LIMK1(h) = LIMK1(h) (Homo sapiens, UniProt P53667)
Rsk1(h) = Rsk1(h) (Homo sapiens, UniProt Q15418)
CDK2/cyclinA(h) = CDK2/cyclinA(h) (Homo sapiens, UniProt P24941)
Snk(h) = Snk(h) (Homo sapiens, UniProt Q9NYY3)
MRCKβ(h) = MRCKβ(h) (Homo sapiens, UniProt Q9Y5S2)
Flt4(h) = Flt4(h) (Homo sapiens, UniProt P35916)
MRCKα(h) = MRCKα(h) (Homo sapiens, UniProt Q5VT25)
DAPK1(h) = DAPK1(h) (Homo sapiens, UniProt P53355)
PKBγ(h) = PKBγ(h) (Homo sapiens, UniProt Q9Y243)
FGFR2(N549H)(h) = FGFR2(N549H)(h) (Homo sapiens, UniProt P21802, N549H)
CDK2/cyclinE(h) = CDK2/cyclinE(h) (Homo sapiens, UniProt P24941)

Sequence: YARAAARQARAKALNRQLGVA (Mammalian) [MMI-0200]
- % activity (eEF-2K(h)): 136%
- % activity (Ab1(Y253F)(h)): 102%
- % activity (MAPK2(h)): 105%
- % activity (SAPK2a(h)): 107%
- % activity (MINK(h)): 103%
- % activity (Lck(h)): 113%
- % activity (HIPK3(h)): 105%
- % activity (EphA3(h)): 117%
- % activity (HIPK1(h)): 115%
- % activity (MARK1(h)): 102%
- % activity (VRK2(h)): 109%
- % activity (SGK2(h)): 119%
- % activity (LIMK1(h)): 109%
- % activity (Rsk1(h)): 102%
- % activity (CDK2/cyclinA(h)): 114%
- % activity (Snk(h)): 109%
- % activity (MRCKβ(h)): 102%
- % activity (Flt4(h)): 105%
- % activity (MRCKα(h)): 103%
- % activity (DAPK1(h)): 113%
- % activity (PKBγ(h)): 103%
- % activity (FGFR2(N549H)(h)): 104%
- % activity (CDK2/cyclinE(h)): 112%
